# The entries are a selection whose mix differs from that of the whole data set. The source made the active and inactive calls. Cut-off read from the data, not from the text of the source: active = activation mostly above about 9.5% (no sharp cut-off); inactive = mostly below about 7.6%.
# The chains behind the UniProt entries cited, without tags or fusion partners.
# UniProt P47898, whole entry, looked up: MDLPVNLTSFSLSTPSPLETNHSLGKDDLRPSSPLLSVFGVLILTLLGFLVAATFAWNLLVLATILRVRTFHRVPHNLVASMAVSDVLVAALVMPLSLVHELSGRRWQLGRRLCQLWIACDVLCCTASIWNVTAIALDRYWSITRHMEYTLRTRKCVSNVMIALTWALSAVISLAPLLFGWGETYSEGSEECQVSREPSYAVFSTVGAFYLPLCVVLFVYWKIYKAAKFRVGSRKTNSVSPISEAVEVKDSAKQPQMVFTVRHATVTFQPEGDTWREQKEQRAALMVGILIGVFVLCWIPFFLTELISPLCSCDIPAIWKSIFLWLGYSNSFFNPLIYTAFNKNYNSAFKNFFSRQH
# Target: 5-hydroxytryptamine receptor 5A (Homo sapiens) (UniProt P47898)
# Assay: activation of human 5-HT5A receptor – cell-based, luminescence, full-deck HTS, counter-screen for OPRM1-OPRD1 heterodimer agonist project, primary screen (AID 504692);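 note: 0% = cells with vehicle only and 100% = reference agonist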
# Conditions: HTR5A agonist assay, at 9.3 µM, active compounds read high
row,Compound,activation
1,O=C(c1ccccc1)N1CCn2c1nc1ccccc12,inactive: -3.11%
2,c1ccc(Cn2c(CNc3nc4ccccc4n3CCN3CCCCC3)nc3ccccc32)cc1,inactive: 3.73%
3,CN1CCN(C(=O)Cn2c(C(F)(F)F)nc3ccccc32)CC1,inactive: 2.63%
4,Cn1cccc1/C=N/NC(=O)Cn1cnc2ccccc21,inactive: 3.12%
5,CC(C(=O)N1CCc2ccccc21)n1cnc2c1c(=O)n(C)c(=O)n2C (stereo not drawn),inactive: -0.18%
6,CCC(=O)Nc1ccc(NC(=S)NC(=O)/C=C/c2ccco2)cc1,inactive: -0.12%
7,C[C@H](NC(=O)N1CCn2c1nc1ccccc12)C(=O)NCC1CCCO1 (stereo partly drawn),inactive: -0.69%
8,CN1CCC(N(C)c2nc(-c3ccccc3)nc3ccccc23)CC1,inactive: -1.67%
9,Cc1ccc(S(=O)(=O)c2nnn3c2nc(NC2CCN(Cc4ccccc4)CC2)c2ccccc23)cc1C,inactive: 3.35%
10,CCN(CC)CCn1cnc2c1c(=O)[nH]c(=O)n2Cc1ccccc1,inactive: 1.92%
11,CC(C(=O)Nc1ccccc1C(=O)O)n1c(C(F)(F)F)nc2ccccc21 (stereo not drawn),inactive: -1.57%
12,Cn1c(=O)c2ncn(CC(=O)NCCOc3ccccc3)c2n(C)c1=O,inactive: 1%
13,CC(C)(C)NC(=O)Cn1c(-c2nonc2N)nc2ccccc21,inactive: -2.65%
14,COC(=O)Cn1c(=N)n(CCN2CCCCC2)c2ccccc21,inactive: -0.28%
15,O=[N+]([O-])c1ccc2c(c1)nc1n2CCN(C2CCCCC2)C1,inactive: 0.6%
16,CCc1ccc(NC(=O)Cn2c3[n+](c4c(F)c(F)ccc42)CCCCC3)cc1,inactive: -5.07%
17,Cc1cccc(OCC(=O)OC2CN3CCC2CC3)c1 (stereo not drawn),inactive: -9.18%
18,CCN(CC)CCn1cnc2c1c(=O)n(CCOC(=O)c1cc(OC)c(OC)c(OC)c1)c(=O)n2C,inactive: 2.83%
19,O=C(Cn1cnc2ccccc21)Nc1cccc(S(=O)(=O)N2CCCC2)c1,inactive: 7.57%
20,COc1ccc(CNc2nc3ccccc3n2CCN2CCOCC2)cc1,inactive: -1.65%

row,Compound,activation
1,O=[As](O)(c1cccc(O)c1)c1cccc(O)c1,inactive: 1.6%
2,C=CCOC(=O)C1=C(C)N=C2SCCC(=O)N2C1/C=C/c1ccccc1 (stereo not drawn),inactive: -1.08%
3,Cn1c(=O)c2c(ncn2CCN(CCO)Cc2ccccc2)n(C)c1=O,inactive: -5.82%
4,CCOC(=O)CSc1nc2ccccc2n1CC(=O)NC(C)(C)C,inactive: 2.58%
5,N#CCC(=O)N1CCn2c1nc1ccccc12,inactive: 7.26%
6,O=C(Cn1c(CO)nc2ccccc21)NC1CCCCCC1,inactive: -0.63%
7,CCN(CC)CCn1c(NCc2cc(OC)ccc2OC)nc2ccccc21,inactive: -0.85%
8,COC(=O)[C@H](CC(C)C)NC(=O)Cn1cnc2c(OCc3ccccc3)ncnc21,inactive: -0.79%
9,CCOC(=O)C1=C(C)N=C2SCCC(=O)N2[C@@H]1/C=C/c1ccccc1,inactive: 6.63%
10,O=C(Cn1c(-c2cncs2)nc2ccccc21)NC1CCCC1,inactive: -0.45%
11,COc1ccc(-c2csc(NCCn3c(C)nc4cc(C(F)(F)F)ccc43)n2)cc1,inactive: 9.26%
12,COc1ccccc1CNC(=O)COC(=O)C(O)(c1ccccc1)c1ccccc1,inactive: 0.31%
13,Cn1c(=O)c2c(nc(N3CCCCC3)n2CCNC2=NCCC2)n(C)c1=O,inactive: -3.63%
14,COc1ccc(N(C(=O)Cn2cnc3ccccc32)C(C(=O)NC2CCCCC2)c2ccccc2)cc1 (stereo not drawn),inactive: 5.27%
15,Cc1ccc2c(c1)C1CN(C)CCC1N2C(=O)c1cccc(S(=O)(=O)N2CC(C)CC(C)C2)c1 (stereo not drawn),inactive: -3.68%
16,O=C(CCNC(=O)N1CCn2c1nc1ccccc12)NCc1ccccc1,inactive: 0.46%
17,Cc1ccc(NC(=O)C2CC(=O)Nc3nc4ccccc4n32)c(C)c1 (stereo not drawn),inactive: -4.94%
18,COc1ccccc1C(=O)Nc1ccc2c(c1)nc1n2CCN(Cc2ccccc2)C1,inactive: 2.33%
19,CCN(CC)c1ccc(CNc2nc3ccccc3n2CCN2CCCCC2)cc1,inactive: -3.91%
20,Cn1c(=O)c2ncn(CC(=O)N/N=C/C=C/c3ccccc3)c2n(C)c1=O,inactive: -0.03%

row,Compound,activation
1,CCN(CC)CCn1c(NCc2ccco2)nc2ccccc21,inactive: -1.56%
2,CS(=O)(=O)N1CCn2c1nc1ccccc12,inactive: 0.17%
3,Cc1nc2ccccc2n1CC(=O)N/N=C\C=C\c1ccccc1,inactive: -1.84%
4,COc1cccc(NC(=S)N2CCn3c(nc4ccccc43)C2)c1,inactive: 4.65%
5,COC(=O)[C@H](Cc1ccccc1)NC(=O)Cn1cnc2c(OCc3ccccc3)ncnc21,inactive: 0.31%
6,N=c1n(CCN2CCCCC2)c2ccccc2n1CC(O)c1cccc(Br)c1 (stereo not drawn),inactive: -9.77%
7,Cc1ccc(OCC(O)Cn2c(=N)n(CCN3CCCCC3)c3ccccc32)cc1 (stereo not drawn),inactive: 5.12%
8,CC(C)C[C@H](NC(=O)N1CCn2c1nc1ccccc12)C(=O)NCc1ccc2c(c1)OCO2,inactive: -0.79%
9,Cn1c(=O)n(Cc2ccccc2F)c(=O)c2c1nc1n2CCN1Cc1ccco1,inactive: -0.45%
10,CCc1cccc(NC(=O)Cn2c3[n+](c4ccc(C(F)(F)F)cc42)CCCCC3)c1,inactive: 1.99%
11,NC(=O)CC(NC(=O)Cc1ccc(Cl)cc1)c1ccc(NC2CCN(Cc3ccccc3)CC2)c([N+](=O)[O-])c1 (stereo not drawn),inactive: -2.09%
12,CC1CN(C(=O)Cn2c(C(F)(F)F)nc3ccccc32)CC(C)O1 (stereo not drawn),inactive: -3.82%
13,O=C(CCCCCNC(=O)N1CCn2c1nc1ccccc12)N[C@H](Cc1ccccc1)C(=O)O,inactive: 3.77%
14,CC(CNC(=O)Cn1cnc2c(OCc3ccccc3)ncnc21)c1ccccc1 (stereo not drawn),inactive: 2.19%
15,c1coc(CNc2nc3ccccc3n2CCN2CCOCC2)c1,inactive: -2.21%
16,Brc1ccc(/C=N/c2nc3ccccc3n2CCN2CCOCC2)cc1,inactive: -0.29%
17,CC(C)CN(C(=O)Cn1c(C(F)(F)F)nc2ccccc21)c1c(N)n(Cc2ccccc2)c(=O)[nH]c1=O,inactive: 2.71%
18,COCCN(C(=O)Cn1c(C(F)(F)F)nc2ccccc21)c1c(N)n(Cc2ccccc2)c(=O)[nH]c1=O,inactive: -3.4%

# — PubChem BioAssay AID504692 (The Scripps Research Institute Molecular Screening Center, 2011)
